Assay results taken from patent publication US20220348590A1, “CYCLOOXYGENASE-2 INHIBITORS AND USES THEREOF” (The Board Institute, Inc., priority 2019, published 2022).

Chains of the proteins cited; added tags and fusions are not shown.
UniProt P35354, whole entry: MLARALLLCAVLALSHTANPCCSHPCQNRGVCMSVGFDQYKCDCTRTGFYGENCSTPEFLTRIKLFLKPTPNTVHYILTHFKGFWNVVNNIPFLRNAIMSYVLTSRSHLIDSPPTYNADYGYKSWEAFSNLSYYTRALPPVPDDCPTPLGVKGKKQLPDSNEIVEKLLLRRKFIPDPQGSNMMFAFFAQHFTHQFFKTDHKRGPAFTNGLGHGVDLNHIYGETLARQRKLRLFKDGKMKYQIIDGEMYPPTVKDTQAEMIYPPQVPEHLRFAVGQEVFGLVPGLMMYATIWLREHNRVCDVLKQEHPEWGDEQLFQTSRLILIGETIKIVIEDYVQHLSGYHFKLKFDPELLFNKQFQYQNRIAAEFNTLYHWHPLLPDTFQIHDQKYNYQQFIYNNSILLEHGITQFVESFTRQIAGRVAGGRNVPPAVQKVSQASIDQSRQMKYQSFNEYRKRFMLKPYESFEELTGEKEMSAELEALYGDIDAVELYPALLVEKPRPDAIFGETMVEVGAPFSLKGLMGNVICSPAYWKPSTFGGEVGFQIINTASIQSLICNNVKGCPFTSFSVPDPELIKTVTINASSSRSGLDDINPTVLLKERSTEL

Molecular target: human recombinant COX2 (hCOX2) (UniProt P35354)
Assay: LCMS-based COX2 enzymatic inhibition assay (PGE2 quantification)
Assay type: biochemical
Method: We have adapted a previously reported cyclooxygenase enzymatic assay utilizing LCMS quantification of PGE2 as the product of COX-1 and COX2 catalyzed conversion of arachidonic acid to evaluate the binding properties of newly synthesized ligands [Cao, 2011]. These optimized and miniaturized (384-well plates) LCMS-based COX-1 and COX2 enzymatic assays enabled us to quickly evaluate newly synthesized ligands for COX2 binding affinity and selectivity vs COX-1. Using a shorter ligand-enzyme incubation time in the LCMS assay (2 minutes vs 10 minutes) also permitted us to prioritize ligands with faster binding kinetics. Considering the relatively slow on-rate kinetics of known coxibs, due to their 3-step binding mechanism [Marnett, 2009], we believe that optimizing this critical parameter will be key to the successful development of a COX2 PET tracer. Using these enzymatic assays, we have evaluated>200 newly synthesized ligands against COX2 and >20 ligands against COX-1. Another critical property necessary for a good PET radiotracer is to have low non-specific binding (NSB) to increase the free fraction and maximize the signal to noise ratio. This property can be evaluated using in-vitro protein binding assays, and we have now evaluated>50 newly synthesized ligands in mouse, rat and human plasma protein binding (PPB) assays as well as >15 ligands in a mouse brain protein binding (BPB) assay.
Ovine COX-1 (oCOX-1), ovine COX2 (oCOX2), human recombinant COX2 (hCOX2), arachidonic acid, PGE2, d4-PGD2, and […] (labeled with deuterium atoms at positions 3 and 4) were purchased from Cayman Chemicals (Ann Arbor, Mich.). […]
The concentration of PGE2 in each sample was measured using LC-MS-MS, and the percent of COX inhibition by each test solution was determined by comparing the amount of PGE2 produced in the experiment with that produced in the negative control incubation. The formation of PGD2 was measured for quality control purposes, since the levels of PGD2 should be proportional to those of PGE2. […]

CS(=O)(=O)c1ccc(-c2cc3c(ccn3Cc3cccs3)cn2)cc1
COX2 2 minutes pge2/pge2d4 area ratio Avg. IC50 (readout pge2/pge2d4 area ratio, average): 5.2 µM | COX2 2 minutes pge2/pge2d4 area ratio Avg. LLE (readout pge2/pge2d4 area ratio, average LLE): 0.784 | COX2 2 minutes pge2 area (counts) Avg. LLE (readout pge2 area (counts), average LLE): 0.784
